Values of other authors, collected in patent US20240108688A1, “Inhibitors of the tissue factor-protease activated receptor 2 (TF-PAR2) signaling pathway for use in the treatment or prevention of heart failure (HF) and associated or resulting diseases” (priority 2020, published 2024).

Conditions: long-term high-dose regimens in cancer therapy; cited from earlier work

CC(=O)Nc1cccc(-n2c(=O)n(C3CC3)c(=O)c3c(Nc4ccc(I)cc4F)n(C)c(=O)c(C)c32)c1 [trametinib, reference compound]
cardiac side effects: cardiotoxic side effects
